This assay deals with HFF-1. The assay is described as follows: MTT cell viability assay, normal fibroblasts HFF-1. The format is cell-based, human. Particulars: HFF-1, GEM 10 µM, 72 h. The protocol:
Compounds 4a–p were submitted to a preliminary MTT assay at a one-point screening concentration of 75 μM for 72 h, including 2b as a reference compound (Figure 3). […] The presence of the electron-donating methoxy group decreased the activity of 2b, in both the para and meta positions. […] Specifically, these compounds, namely 4d, 4e, 4f, 4h, 4i, 4j, 4k, 4l, and 4m, were tested at concentrations of 3, 6, 12 and 24 µM for 72 h. In addition, the nine compounds, together with 2b, were tested against human fibroblasts HFF-1, in order to evaluate their selectivity against tumor cells, as compared to normal cells. Effects on cancer or normal cell viability were extrapolated from concentration–response curves and are expressed as IC50 values in Table 2.
Pancreatic cancer (AsPC-1, BxPC-3, and Capan-2), paraganglioma (PTJ86i and PTJ64i) and normal fibroblast (HFF-1) cell lines were cultured as previously described. All compounds were dissolved in DMSO (stock solutions) and then diluted in culture media to the final working concentrations. […]
IC50 values were extrapolated from concentration–response curves and calculated using the CompuSyn software. The interactions between compound 4l and gemcitabine were assessed by calculating the CI values using the CompuSyn software. […] SI values were calculated as previously described. […]
A general note: Tetrazolium assays rely on reduction of a dye to a coloured formazan, in cell work by metabolically active cells.

SMILES strings stand for the structures.

As for `Nc1ccn([C@@H]2O[C@H](CO)[C@@H](O)C2(F)F)c(=O)n1` [GEM, gemcitabine, reference compound], the “Inhibition Rate of Cell Viability” value came to 26.27%.

(Values after publication PMC9412555, “Benzothiazole Derivatives Endowed with Antiproliferative Activity in Paraganglioma and Pancreatic Cancer Cells: Structure–Activity Relationship Studies and Target Prediction Analysis” (Pharmaceuticals, 2022).)
